Source: ChEMBL document CHEMBL1124268, “Approaches to protection against nerve agent poisoning. (Naphthylvinyl)pyridine derivatives as potential antidotes” (1988)

Columns and labels:
Cavia porcellus = species on record: Cavia porcellus; test: Selectivity ratio of I50 of AChE to I50 of CAT
[1] = biological target: T1, Acetylcholinesterase (Rattus norvegicus) (UniProt P37136); test: Effect on rate of aging of soman-inhibited acetylcholinetransferase (AChE) from rat erythrocyte lysate at 1 mM, ratio of control/treated
T1 sequence (whole entry): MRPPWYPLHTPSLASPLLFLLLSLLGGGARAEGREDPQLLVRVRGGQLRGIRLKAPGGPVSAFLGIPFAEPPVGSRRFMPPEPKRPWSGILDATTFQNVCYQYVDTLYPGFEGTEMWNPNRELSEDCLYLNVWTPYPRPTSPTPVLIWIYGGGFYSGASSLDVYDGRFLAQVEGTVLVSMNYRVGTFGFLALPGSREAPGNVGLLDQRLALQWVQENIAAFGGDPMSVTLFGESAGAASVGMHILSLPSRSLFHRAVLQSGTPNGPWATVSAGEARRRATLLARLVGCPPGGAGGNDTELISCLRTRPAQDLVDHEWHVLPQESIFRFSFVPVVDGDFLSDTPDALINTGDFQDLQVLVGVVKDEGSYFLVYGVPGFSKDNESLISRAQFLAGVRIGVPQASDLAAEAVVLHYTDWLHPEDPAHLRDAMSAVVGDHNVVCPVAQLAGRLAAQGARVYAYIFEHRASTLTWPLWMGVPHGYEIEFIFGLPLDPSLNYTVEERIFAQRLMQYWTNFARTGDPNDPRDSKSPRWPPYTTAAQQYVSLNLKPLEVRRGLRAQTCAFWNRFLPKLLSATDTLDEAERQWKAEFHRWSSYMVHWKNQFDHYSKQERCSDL

[2] = biological target: T1, Acetylcholinesterase (Rattus norvegicus); test: Effect on rate of aging of soman-inhibited acetylcholinetransferase (AChE) in rat erythrocyte lysate at 1 mM, ratio of control/treated
[3] = biological target: T1, Acetylcholinesterase (Rattus norvegicus); test: Effect on rate of aging of soman-inhibited acetylcholinetransferase (AChE) of rat erythrocyte lysate at 0.1 mM, ratio of control/treated
[4] = biological target: T1, Acetylcholinesterase (Rattus norvegicus); test: Inhibition of aging rate in soman-inhibited acetylcholinetransferase (AChE) assay of rat erythrocyte lysate at 1 mM
[5] = biological target: T1, Acetylcholinesterase (Rattus norvegicus); test: Inhibition of aging rate in soman-inhibited acetylcholinetransferase (AChE) assay in rat erythrocyte lysate at 1 mM, ratio of control/treated

C[n+]1cccc(NC(=O)Nc2cccc3ccccc23)c1 gave a Ratio (Cavia porcellus) of 0.4.

OCCN1CCC(CCc2cccc3ccccc23)CC1 gave a Ratio (Cavia porcellus) of 0.9 and a Ratio [1] of 1.

Compound CC(=O)Nc1cc(/C=C/c2cccc3ccccc23)cc[n+]1C has a Ratio (Cavia porcellus) of 243 and a Ratio [2] of 1.4.

For [O-][n+]1ccc(/C=C/c2cccc3ccccc23)cc1, the Ratio (Cavia porcellus) was > 1.8 and the Ratio [3] was 0.7.

In the case of COc1ccc(/C=C/c2cc[n+](CCO)cc2)c2ccccc12, the Ratio (Cavia porcellus) is reported as 1.6 and the Ratio [3] is reported as 1.6.

For C[n+]1ccc(/C=C/c2cccc3ccccc23)cc1N, the Ratio (Cavia porcellus) was 6 and the Ratio [2] was 1.9.

For C[n+]1ccc(/C=C/c2ccc(Cl)c(Cl)c2)cc1, the Ratio (Cavia porcellus) was 5.3 and the Ratio [3] was 0.5.

C[n+]1ccc(/C=C/c2cccc3ccccc23)cc1 showed a Ratio (Cavia porcellus) of 353 and a Ratio [3] of 1.4.

For C[n+]1ccc(/C=C/c2cc3ccccc3c3ccccc23)cc1, the Ratio (Cavia porcellus) was 0 and the Ratio [2] was 0.8.

CN1CCC(CCc2cccc3ccccc23)CC1 gave a Ratio (Cavia porcellus) of 0.4 and a Ratio [2] of 1.1.

OCC[n+]1ccc(/C=C/c2cccc3ccccc23)cc1 gave a Ratio (Cavia porcellus) of 56.7 and a Ratio [3] of 1.

C[n+]1ccc(/C=C/c2c3ccccc3cc3ccccc23)cc1 was tested, and the Ratio (Cavia porcellus) was 0.2 and the Ratio [3] was 1.6.

For C[N+]1(C)CC=C(/C=C/c2cccc3ccccc23)CC1, the Ratio (Cavia porcellus) was < 0.9 and the Ratio [3] was 1.

COc1ccc(/C=C/c2cccc[n+]2C)c2ccccc12 was tested, and the Ratio (Cavia porcellus) was 0.3 and the Ratio [3] was 1.3.

CN1CC=C(/C=C/c2cccc3ccccc23)CC1 showed a Ratio (Cavia porcellus) of 112.

Compound C[n+]1ccc(/C=C/c2ccccc2)cc1 has a Ratio (Cavia porcellus) of 100 and a Ratio [2] of 2.6.

With CCCCCCN1CC=C(/C=C/c2cccc3ccccc23)CC1 the Ratio (Cavia porcellus) was 1 and the Ratio [3] was 1.1.

In the case of COc1ccc(/C=C/c2cc[n+](C)cc2)c2ccccc12, the Ratio (Cavia porcellus) is reported as 0.2 and the Ratio [3] is reported as 3.4.

CN1CCC(/C=C/c2cccc3ccccc23)CC1 showed a Ratio [4] of 1, a Ratio (Cavia porcellus) of 0.2 and a Ratio [3] of 0.9.

Compound C[n+]1ccc(NC(=O)Nc2cccc3ccccc23)cc1 has a Ratio (Cavia porcellus) of 0.3 and a Ratio [3] of 1.1.

In the case of CN1CC=C(c2ccccc2)CC1, the Ratio (Cavia porcellus) is reported as 0.9.

CCCCCC[n+]1ccc(/C=C/c2cccc3ccccc23)cc1 showed a Ratio (Cavia porcellus) of 7.6 and a Ratio [3] of 1.2.

Work on COc1ccc2ccccc2c1/C=C/c1cc[n+](C)cc1 yielded a Ratio (Cavia porcellus) of 1.1 and a Ratio [3] of 1.9.

C[n+]1ccc(/C=C/c2ccc(OCc3ccccc3)cc2)cc1 was tested, and the Ratio (Cavia porcellus) was 0.

Work on COc1ccc(/C=C/c2cc[n+](C)cc2)cc1OC yielded a Ratio (Cavia porcellus) of 1.8 and a Ratio [3] of 1.6.

C[n+]1ccc(C#Cc2cccc3ccccc23)cc1 showed a Ratio (Cavia porcellus) of 39, a Ratio [5] of 3.1 and a Ratio [3] of 0.9.

For C[n+]1ccccc1/C=C/c1cccc2ccccc12, the Ratio (Cavia porcellus) was 29.1 and the Ratio [3] was 1.5.

For C[n+]1ccc(CCc2cccc3ccccc23)cc1, the Ratio (Cavia porcellus) was 1.3 and the Ratio [3] was 1.
